In the experiment the target is human serotonin transporter (SERT) (Homo sapiens (Human), UniProt P31645). Description: Human serotonin transporter (SERT) binding test. The following applies: [3H]-citalopram, h-SERT/CHO cell membrane; read-out: h-SERT binding inhibition constant Ki.

With `CNCc1cc(OCc2ccccc2)n(CC2CC3CCC2C3)n1` (stereo not shown) [Example 115, 1-[5-(benzyloxy)-1-(bicyclo[2.2.1]hept-2-ylmethyl)-1H-pyrazol-3-yl]-N-methylmethanamine], the Ki worked out at 1.5 nM.

As a reminder, the Ki is the equilibrium dissociation constant of an inhibitor or competing ligand from its target.
